The values below come from patent US9828641B2, “Systemic genotoxicity as blood marker for allergic inflammation” (The Regents of the University of California, priority 2013, dated 2017).

The conditions of data set [1]: 3% DSS, 3 cycles, severe symptoms and rectal prolapse. On the procedure:
Acute colitis was defined as a 7 day treatment, and chronic colitis as any further treatment including remission periods. Control animals received sterile acidified water only. Symptoms (weight loss, stool consistency, gross bleeding) were recorded daily for calculation of disease activity index (23).
The disease activity index (DAI) is the average combined score of weight loss (0-4), stool consistency (0-4), and bleeding (0-4), used to score clinical symptoms (23).

The subject of data set [2] is peripheral leukocytes. Put plainly: Alkaline comet assay with and without hOgg1 incubation. The note with it: 3% DSS. Type of data set: in vivo, mice. On the procedure: Frozen blood was further diluted 1:15 in PBS before further preparation.
The enzyme hOgg1-modified comet assay was used for determination of oxidative DNA damage (25). Following lysis, samples were washed in an enzyme wash buffer (40 mM HEPES, 0.1M KCl, 0.5 mM EDTA, 0.2 mg/ml BSA, pH 8.0) then incubated at 37° C. for 10 min in either control (buffer with no hOGG1) or enzyme treated (buffer with hOGG1) solutions according to the manufacturer's recommendations. (New England Biolabs, Ipswich, Mass.). Both control and enzyme treated gels were then placed in electrophoresis buffer and processed identically to the alkaline comet assay.
The enzyme hOgg1-modified comet assay was used and carried out identically as previously described (1).
For determination of oxidative DNA damage the enzyme hOgg1-modified comet assay was used (5). After lysis in the alkaline comet assay, samples were washed in an enzyme wash buffer (40 mM HEPES, 0.1M KCl, 0.5 mM EDTA, 0.2 mg/ml BSA, pH 8.0) then incubated at 37° C. for 10 min in either control (buffer with no hOGG1) or enzyme treated (buffer with hOGG1) solutions according to the manufacturer's recommendations (New England Biolabs, Ipswich, Mass.). Both control and enzyme treated gels were then placed in electrophoresis buffer and processed identically to the alkaline comet assay.
Control animals received vehicle only.

The test system of data set [3] is normochromatic erythrocytes. Put plainly: In vivo micronucleus assay. More on the design: species or system mice. The note with it: 3% DSS, p<0.01.
Data set [4] concerns peripheral leukocytes. The note with it: 7 days of DSS, p<0.05.

Consider dextran sulfate sodium [DSS], for which the “Mortality in Atm−/− mice” value in data set [1] was “Two out of ten”. Moreover, the “Olive tail moment in wildtype mice (Example 2)” value in the data set with peripheral leukocytes [2] (after the first cycle, p<0.001) is “increased”. Besides, the “Mean olive tail moment with hOgg1 incubation (oxidative base damage) vs hOgg1 incubated non-treated mice” value in the data set with peripheral leukocytes [2] (after treatment cycles, p<0.05) was “higher”. Also, the “Mean olive tail moment vs non-treated mice” value in the data set with peripheral leukocytes [2] (end of each cycle, without hOgg1, p<0.01) is listed as “significantly higher olive tail moments”. In addition, the “Micronucleus formation vs non-treated animals” value in data set [3] (after the first cycle) was “significantly induced”. For the same substance, the “Micronucleus formation vs non-treated animals and levels before cycle 1” value in data set [3] (after the second and third cycles) is reported as “further induced”. In the data set with peripheral leukocytes [4], the “8-oxoguanine in peripheral leukocytes of Atm−/− mice” value is given as “significant increases” and the “Nitrotyrosine in peripheral leukocytes of Atm−/− mice” value is reported as “significant increases”.
